This note sets out measurements from patent US9624477B2 (priority 2004, dated 2017).

This experiment deals with Pi-omega3Des. Description: Functional characterization of Pi-omega3Des: expression in yeast, feeding with various fatty acids, FAME analysis via GLC. The following applies: yeasts transformed with pYes3-Pi-omega3Des, grown in minimal medium in the presence of the fatty acid (300 μM); FAMEs analyzed via GLC; blank vector as control.
Regarding `CCCCC/C=C\C/C=C\C/C=C\CCCCC(=O)O`, the “desaturation of the fed ω-6-fatty acid to the ω-3-fatty acid by Pi-omega3Des” value (shortened to “desaturation of the fed ω-6-fatty acid”) is “desaturation of γ-linolenic acid (18:3 ω-6-fatty acid) to stearidonic acid (18:4 ω-3-fatty acid)”.
For `CCCCC/C=C\C/C=C\CCCCCCCC(=O)O`, the “desaturation of the fed ω-6-fatty acid” value is reported as “desaturation of linoleic acid (18:2 ω-6-fatty acid) to α-linolenic acid (18:3 ω-3-fatty acid)”.
As for `CCCCC/C=C\C/C=C\C/C=C\C/C=C\CCCC(=O)O` [arachidonic acid, reference compound], the entry is “desaturation of arachidonic acid (C20:4 ω-6-fatty acid) to eicosapentaenoic acid (C20:5 ω-3-fatty acid)”; as for dihomo-γ-linolenic acid, “desaturation of C20:3 ω-6-fatty acid to C20:4 ω-3-fatty acid”; as for docosatetraenoic acid, “desaturation of docosatetraenoic acid (C22:4 ω-6-fatty acid) to docosapentaenoic acid (C22:5 ω-3-fatty acid)”.
In the case of eicosadienoic acid, the “desaturation of the fed ω-6-fatty acid” value was “desaturation of C20:2 ω-6-fatty acid to C20:3 ω-3-fatty acid”.
